# Biological target: P2X purinoceptor 7 (Homo sapiens, UniProt Q99572)
# Protein sequences, listed by entry. Tags and fused reporters are not part of them. Lines headed by an entry give the natural chain unless they say otherwise; changes in a name come on top.
# UniProt Q99572: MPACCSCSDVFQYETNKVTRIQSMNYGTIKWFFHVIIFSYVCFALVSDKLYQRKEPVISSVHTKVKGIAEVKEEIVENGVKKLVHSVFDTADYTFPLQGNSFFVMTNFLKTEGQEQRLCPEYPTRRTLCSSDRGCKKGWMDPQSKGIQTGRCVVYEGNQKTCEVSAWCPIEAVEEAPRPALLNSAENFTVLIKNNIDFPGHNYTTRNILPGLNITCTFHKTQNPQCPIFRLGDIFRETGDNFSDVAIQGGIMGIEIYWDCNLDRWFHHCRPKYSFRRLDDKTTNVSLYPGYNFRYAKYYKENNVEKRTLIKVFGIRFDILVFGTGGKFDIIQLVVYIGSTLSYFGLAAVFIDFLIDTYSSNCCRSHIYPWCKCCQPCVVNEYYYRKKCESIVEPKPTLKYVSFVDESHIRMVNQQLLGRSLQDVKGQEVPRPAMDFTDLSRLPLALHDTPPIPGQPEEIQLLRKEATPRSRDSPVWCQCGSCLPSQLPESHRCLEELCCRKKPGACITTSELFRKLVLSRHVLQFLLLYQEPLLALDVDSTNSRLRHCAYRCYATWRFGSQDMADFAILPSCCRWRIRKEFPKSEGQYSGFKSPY
# Test: P2X7 Radioligand Binding: human or rat P2X7-1321N1 cells were collected and frozen @−80° C. On the day of the experiment, cell membrane preparations were made according to standard published methods. The total assay volume was 100 μl:10 μl compound (10×)+(b) 40 μl tracer (2.5×)+50 μl membrane (2×). The tracer used for the assay was tritiated A-804598. The compound can be prepared as described in the literature. (Donnelly-Roberts, D. Neuropharmacology 2008, 56 (1), 223-229.) Compounds, tracer and membranes were incubated for 1 hour @ 4° C. The assay was terminated by filtration (GF/B filters pre-soaked with 0.3% PEI) and washed with washing buffer (Tris-HCl 50 mM). The IC50 generated in the binding assay was corrected for tracer concentration and affinity of the tracer to derive at the affinity (K) of the test compounds. […] Data are analyzed and graphed on Graphpad Prism 5.
smiles,measurement,value
Cc1ncccc1C(=O)NN,Ki,4 nM
